PubChem BioAssay AID678 (Vanderbilt High Throughput Screening Facility, 2007)
This is a selection; strong and weak results do not stand in their true shares. The source made the active and inactive calls.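 The calls were made as follows: active = fluorescence response below the plate's average for near-maximal glutamate wells, less 3 SD of those wells; inactive = the rest.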

Each compound was assayed against Metabotropic glutamate receptor 4 (Homo sapiens) (UniProt Q14833) (assay: mGluR4 calcium signal in M1 antagonist follow-up – cell-based, antagonist mode, secondary assay 1, M1 allosteric modulator project (AID 678;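 also: raw unnormalized fluorescence span taken in the window right after glutamate addition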)). Conditions: CHO-mGluR4 calcium flux, Fluo-4 fluorescence, glutamate EC80; at 10 µM; hits give low values.
With `O=C(OC1CN2CCC1CC2)c1cccc(Cl)c1` (centres undefined) the fluorescence response (max-min) was inactive: 215. `Cc1ccc(OCC(=O)OC2CN3CCC2CC3)cc1` (centres undefined) was tested, and the fluorescence response (max-min) was inactive: 260. In the case of `O=C(OC1CN2CCC1CC2)C12CC3CC(CC(C3)C1)C2` (centres undefined), the fluorescence response (max-min) is reported as inactive: 187. For `O=C(COc1ccccc1)OC1CN2CCC1CC2` (centres undefined), the fluorescence response (max-min) was inactive: 217.
